Assay [1] can be described thus: ABTS radical scavenging activity at 200 ppm. In kind it is functional.
The nature of assay [2]: DPPH radical scavenging activity at 200 ppm. The format is functional. On the technique in general: The DPPH test is a chemical assay of radical scavenging.

We go through one molecule from ChEMBL document CHEMBL1147952.

`O=C1O[C@H]([C@@H](O)CO)C(O)=C1O`: the Activity was determined as 89% in assay [1] and 88% in assay [2].
